According to BindingDB's records for doi:10.1021/jm00018a028 (University of Nebraska Medical Center, 1995):

Test: Ability to induce shape change (polarization) in human polymorphonuclear leukocytes (PMN)

- EC50: 0.9 µM
Compound: CC[C@H](C)[C@H](N)C(=O)N[C@@H](CO)C(=O)N[C@@H](Cc1ccccc1)C(=O)N[C@@H](CCCCN)C(=O)N[C@@H](CC(=O)O)C(=O)N[C@@H](CCSC)C(=O)N[C@@H](CCC(N)=O)C(=O)N[C@@H](CC(C)C)C(=O)NCC(=O)N[C@@H](CCCNC(=N)N)C(=O)O
